Organism: Homo sapiens
Assay: Selectivity index, ratio of Ki for recombinant human CB1 receptor to Ki for recombinant human CB2 receptor

Structure (SMILES)	Ratio Ki
CCCCCn1c(=O)c(C(=O)NC2CCC(C)CC2)cc2ccccc21 (configuration not stated)	147
CC1CCC(NC(=O)c2c(O)c3cccnc3n(Cc3ccc(F)cc3)c2=O)CC1 (configuration not stated)	184

— ChEMBL document CHEMBL3421611, “New quinolone- and 1,8-naphthyridine-3-carboxamides as selective CB2 receptor agonists with anticancer and immuno-modulatory activity” (Eur J Med Chem, 2015)
